The results in this text go back to PubChem BioAssay AID488928 (Johns Hopkins Ion Channel Center, 2010).

Structures are written as SMILES. The list shows a part of the results, in another mix than the full data. Calls of active or inactive are those of the source.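 The calls were made as follows: active = drop in membrane potential signal beyond 5 SD of the control wells in both duplicate plates; inactive = the rest.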

The test system of the test is TRPC4 (transient receptor potential cation channel C4), mouse. Kind of test: TRPC4 inhibition by TRPC6 hit compounds, confirmation, selectivity assay for TRPC6 modulator project, cell-based, second screen, HEK293 TRPC4/mu-opioid, membrane potential dye (AID 488928).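 Also: TRPC4 counter screen for TRPC6 hits run under conditions tuned for TRPC6 not TRPC4.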 The settings on record: membrane potential dye fluorescence, at 10 µM, stimulated with maximal-effect DAMGO; hits give high values.
`O=C(OC1CN2CCC1CC2)C1c2ccccc2C=Cc2ccccc21` (configuration not stated): the inhibition (commonly how much of the control response was suppressed) was active: 43.5%.
The entry for `CN1CCN(CCOC(=O)C(O)(c2ccccc2)c2ccccc2)CC1` is “inactive”.
